These are literature values, as cited in US20260092919A1, “REAGENT FOR MEASURING TYROSINE KINASE ACTIVITY, AND USE THEREOF” (HILO CO. LTD., priority 2022, published 2026).

Amino acid sequences for entries named in this document (tags omitted). Residues count along the entry.
UniProt P00533, 25-1210: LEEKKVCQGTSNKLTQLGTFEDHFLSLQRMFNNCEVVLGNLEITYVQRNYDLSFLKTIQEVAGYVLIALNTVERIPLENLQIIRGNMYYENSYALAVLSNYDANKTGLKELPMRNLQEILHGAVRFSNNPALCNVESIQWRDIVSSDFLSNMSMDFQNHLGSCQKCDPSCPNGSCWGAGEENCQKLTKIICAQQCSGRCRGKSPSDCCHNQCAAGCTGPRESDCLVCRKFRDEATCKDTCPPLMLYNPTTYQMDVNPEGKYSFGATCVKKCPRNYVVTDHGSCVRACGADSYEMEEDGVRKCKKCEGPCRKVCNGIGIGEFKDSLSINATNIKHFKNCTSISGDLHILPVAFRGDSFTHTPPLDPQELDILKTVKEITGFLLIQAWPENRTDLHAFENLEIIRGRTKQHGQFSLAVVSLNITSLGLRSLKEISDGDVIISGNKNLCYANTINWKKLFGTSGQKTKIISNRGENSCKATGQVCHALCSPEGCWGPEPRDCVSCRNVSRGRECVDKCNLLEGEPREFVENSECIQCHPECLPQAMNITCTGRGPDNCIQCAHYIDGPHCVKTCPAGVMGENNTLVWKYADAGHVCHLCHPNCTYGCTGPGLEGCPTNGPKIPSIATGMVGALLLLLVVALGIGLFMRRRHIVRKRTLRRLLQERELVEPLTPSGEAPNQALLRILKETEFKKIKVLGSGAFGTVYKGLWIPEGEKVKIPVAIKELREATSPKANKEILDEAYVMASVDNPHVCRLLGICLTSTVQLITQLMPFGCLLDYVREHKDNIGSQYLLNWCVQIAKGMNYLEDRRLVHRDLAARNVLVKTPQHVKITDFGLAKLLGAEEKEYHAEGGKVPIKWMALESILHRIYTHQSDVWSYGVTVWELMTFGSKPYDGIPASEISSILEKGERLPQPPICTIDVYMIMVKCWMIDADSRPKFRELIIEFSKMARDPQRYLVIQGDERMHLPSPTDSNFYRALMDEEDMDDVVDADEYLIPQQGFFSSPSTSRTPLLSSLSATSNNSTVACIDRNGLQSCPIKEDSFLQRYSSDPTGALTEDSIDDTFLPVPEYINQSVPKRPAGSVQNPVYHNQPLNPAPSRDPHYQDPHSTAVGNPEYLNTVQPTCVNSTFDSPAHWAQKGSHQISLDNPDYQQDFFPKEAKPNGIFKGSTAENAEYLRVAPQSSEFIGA

Broadly, the IC50 is the concentration needed to halve the response being measured.

This data set concerns the target EGFR (Homo sapiens, UniProt P00533). Particulars: cited from earlier work.

On to `COc1cc2ncnc(Nc3cccc(Cl)c3)c2cc1OC` [AG-1478], for which the IC50 was 3 nM.
